# Test results reported in patent publication US9062026B2, “Fused pyrimidines and substituted quinazolines as inhibitors of p97” (Cleave Biosciences, Inc., priority 2012, dated 2015).
# Sequences of proteins named here, by UniProt entry; tags and fusion partners are left off.
# UniProt P55072, whole entry: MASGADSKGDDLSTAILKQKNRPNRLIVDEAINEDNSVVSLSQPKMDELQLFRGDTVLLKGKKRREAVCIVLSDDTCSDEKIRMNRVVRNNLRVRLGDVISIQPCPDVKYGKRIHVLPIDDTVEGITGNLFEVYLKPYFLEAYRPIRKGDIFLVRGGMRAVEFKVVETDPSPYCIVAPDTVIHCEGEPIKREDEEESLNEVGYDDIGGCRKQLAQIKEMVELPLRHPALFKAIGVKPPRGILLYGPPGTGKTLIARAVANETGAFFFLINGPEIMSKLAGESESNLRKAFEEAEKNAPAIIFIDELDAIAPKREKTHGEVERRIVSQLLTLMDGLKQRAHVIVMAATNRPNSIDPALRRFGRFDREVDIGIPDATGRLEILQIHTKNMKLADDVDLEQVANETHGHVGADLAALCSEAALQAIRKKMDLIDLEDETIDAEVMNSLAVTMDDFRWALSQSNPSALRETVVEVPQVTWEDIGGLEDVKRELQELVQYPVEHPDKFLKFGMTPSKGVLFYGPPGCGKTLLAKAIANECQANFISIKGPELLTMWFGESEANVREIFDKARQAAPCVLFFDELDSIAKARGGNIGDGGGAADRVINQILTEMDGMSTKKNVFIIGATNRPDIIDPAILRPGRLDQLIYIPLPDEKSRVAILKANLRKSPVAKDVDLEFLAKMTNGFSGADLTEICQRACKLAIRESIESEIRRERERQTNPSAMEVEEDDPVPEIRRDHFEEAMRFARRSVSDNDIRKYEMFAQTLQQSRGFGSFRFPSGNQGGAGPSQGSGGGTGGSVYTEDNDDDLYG
# Biological target: p97 (Homo sapiens (Human), UniProt P55072)
# Experiment: P97 ATPase biochem assay (ADP Glo)
# Conditions: read-out: p97 biochem IC50; 20 nM p97, 20 μM ATP, 37° C., 15 minutes
structure (smiles),measurement,value
Nc1nc2ccccc2n1-c1nc(NCc2ccccc2)c2ccsc2n1,IC50,< 5 µM
